Reference: publication PMC6270569, “Purification, Partial Characterization and Immobilization of a Mannose-Specific Lectin from Seeds of Dioclea lasiophylla Mart” (2013)
≈ marks a conversion by molar mass, not a printed value.

The chains behind the UniProt entries cited, without tags or fusion partners. Residues count along the entry.
UniProt C0HK27, 163-280 limits assumed: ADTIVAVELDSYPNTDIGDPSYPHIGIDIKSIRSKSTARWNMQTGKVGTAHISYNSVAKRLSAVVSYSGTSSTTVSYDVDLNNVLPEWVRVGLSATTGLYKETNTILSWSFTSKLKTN
UniProt C0HK27, 29-147 limits assumed: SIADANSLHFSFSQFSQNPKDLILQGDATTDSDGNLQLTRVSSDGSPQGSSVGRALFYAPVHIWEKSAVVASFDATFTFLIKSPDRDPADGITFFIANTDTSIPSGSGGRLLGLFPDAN

Target: DlyL (Dioclea lasiophylla lectin) (Dioclea lasiophylla, UniProt C0HK27)
Test: inhibition of hemagglutination (rabbit erythrocytes, serial dilution)
Details: 150 mM NaCl; 32 HU lectin; minimum inhibitory concentration; carbohydrate recognition site

CO[C@H]1O[C@H](CO)[C@@H](O)[C@H](O)[C@@H]1O
MIC *: 6.25 mM (≈ 1210 µg/mL)

OC[C@H]1OC(O)[C@@H](O)[C@@H](O)[C@@H]1O (some centres unmarked)
MIC *: 25 mM (≈ 4500 µg/mL)
